Assay [1] relates to PSMA-positive (LNCaP, CWR22R) human prostate cancer cells. Briefly: Fluorescent peptide binding to PSMA-positive prostate cancer cells (confocal microscopy). The format is cell-based. Conditions: FITC-labeled peptide tested at 1, 5, 10, 50 μM; 1% fetal bovine serum media, 1 hr. As for the experimental part:
(§1) FIG. 5 depicts dimeric WQPDTAHHWATL (SEQ ID NO:1) peptide binds selectively to PSMA-producing prostate cancer cells. Attached PSMA-positive (LNCaP, CWR22R) and PSMA-negative (PC-3, DU145) human prostate cancer were prelabeled with Orange Cell Tracker (Invitrogen) at 2.5 μM in RPMI for 30 mins. After washing with Hanks balanced salt solution, cells were incubated with FITC-labeled monomeric (50 μM) or dimeric (5 μM) WQPDTAHHWATL (SEQ ID NO:1) peptide in 1% fetal calf serum containing media for 1 hr. Cells were washed 3 times with PBS and fixed with 1% Formalin for ½ hr at room temperature. Cells were visualized using Zeiss Meta 510 confocal microscope at 20× magnification. Top panels show orange cell tracker labeled cells (rhodamine filter set); middle panels show labeled peptide binding (FITC filter set); bottom panel show overlay of both panels.
(§2) Binding of WQPDTAHHWATL (SEQ ID NO:1) peptides to PSMA-expressing cell lines—To analyze peptide binding to membrane bound PSMA, fluorescently labeled peptides were synthesized by coupling FITC to the C-terminus of either the monomeric or dimeric peptide. […] In contrast, cell binding of the dimeric WQPDTAHHWATL (SEQ ID NO:1) peptide could be easily visualized at concentrations as low as 5 μM, FIG. 5. Labeled, dimeric peptide bound to a similar degree to both CWR22R and LNCAP.

Assay [2] concerns PSMA-negative (PC-3, DU145) human prostate cancer cells. Briefly: Fluorescent peptide binding to PSMA-negative prostate cancer cells (confocal microscopy). Conditions: fluorescent labeled peptide. The format is cell-based. As for the experimental part:
as §1, §2

“FITC-labeled dimeric WQPDTAHHWATL peptide: fluorescently labeled peptide made by coupling FITC to the C-terminus of the dimeric peptide”: the “peptide concentration at which cell binding could be visualized” value in assay [1] was found to be 5 µM. Besides, in assay [2], the “binding above background to non-PSMA expressing prostate cancer cells” value was “no significant binding”.

Values taken from patent publication US8258256B2, “Compositions and methods for the treatment of cancer” (The Johns Hopkins University, priority 2006, dated 2012).
